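The compound was tested at five concentrations on cells cultured in 96-well plates, with a 48-hour exposure period. GI50 = concentration required for 50% inhibition of growth. TGI: total growth inhibition.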
What was measured:
Assay in all cases: growth of human tumour cells (NCI), 48 h
U251 CNS = tested on: U251 CNS
OVCAR-5 ovarian = tested on: OVCAR-5 ovarian
LOX IMVI melanoma = tested on: LOX IMVI melanoma
NCI-H522 lung = tested on: NCI-H522 lung
SK-MEL-28 melanoma = tested on: SK-MEL-28 melanoma
A498 renal = tested on: A498 renal
CAKI-1 renal = tested on: CAKI-1 renal
NCI-H226 lung = tested on: NCI-H226 lung
CCRF-CEM leukemia = tested on: CCRF-CEM leukemia
HT29 colon = tested on: HT29 colon
UO-31 renal = tested on: UO-31 renal
HOP-92 NSCLC = tested on: HOP-92 NSCLC
IGROV1 ovarian = tested on: IGROV1 ovarian
SNB-19 CNS = tested on: SNB-19 CNS
MALME-3M melanoma = tested on: MALME-3M melanoma
HCT-116 colon = tested on: HCT-116 colon
NCI/ADR-RES ovarian = tested on: NCI/ADR-RES ovarian
COLO 205 colon = tested on: COLO 205 colon
OVCAR-4 ovarian = tested on: OVCAR-4 ovarian
MDA-MB-231 breast = tested on: MDA-MB-231 breast
M14 melanoma = tested on: M14 melanoma
BT-549 breast = tested on: BT-549 breast
HCT-15 colon = tested on: HCT-15 colon
UACC-257 melanoma = tested on: UACC-257 melanoma
A549 NSCLC = tested on: A549 NSCLC
HL-60(TB) leukemia = tested on: HL-60(TB) leukemia
MDA-MB-435 = tested on: MDA-MB-435
SW-620 colon = tested on: SW-620 colon
PC-3 prostate = tested on: PC-3 prostate
786-0 renal = tested on: 786-0 renal
UACC-62 melanoma = tested on: UACC-62 melanoma
SNB-75 CNS = tested on: SNB-75 CNS
SK-MEL-5 melanoma = tested on: SK-MEL-5 melanoma
MCF7 breast = tested on: MCF7 breast
SN12C renal = tested on: SN12C renal
NCI-H322M lung = tested on: NCI-H322M lung
HOP-62 NSCLC = tested on: HOP-62 NSCLC
SK-OV-3 ovarian = tested on: SK-OV-3 ovarian
NCI-H460 lung = tested on: NCI-H460 lung
NCI-H23 lung = tested on: NCI-H23 lung
MOLT-4 leukemia = tested on: MOLT-4 leukemia
KM12 colon = tested on: KM12 colon
HCC-2998 colon = tested on: HCC-2998 colon
OVCAR-3 ovarian = tested on: OVCAR-3 ovarian
OVCAR-8 ovarian = tested on: OVCAR-8 ovarian
T-47D breast = tested on: T-47D breast
SF-268 CNS = tested on: SF-268 CNS
RXF 393 renal = tested on: RXF 393 renal
SF-539 CNS = tested on: SF-539 CNS
SK-MEL-2 melanoma = tested on: SK-MEL-2 melanoma
SF-295 CNS = tested on: SF-295 CNS
ACHN renal = tested on: ACHN renal
DU-145 prostate = tested on: DU-145 prostate
RPMI-8226 leukemia = tested on: RPMI-8226 leukemia
SR leukemia = tested on: SR leukemia

COc1cccc([As]=O)c1 (stereo not given)
GI50 (U251 CNS): 133 nM
TGI (U251 CNS): 267 nM
GI50 (OVCAR-5 ovarian): 210 nM
TGI (OVCAR-5 ovarian): 507 nM
GI50 (LOX IMVI melanoma): 58.7 nM
TGI (LOX IMVI melanoma): 217 nM
GI50 (NCI-H522 lung): 92.1 nM
TGI (NCI-H522 lung): 248 nM
GI50 (SK-MEL-28 melanoma): 162 nM
TGI (SK-MEL-28 melanoma): 309 nM
GI50 (A498 renal): 118 nM
TGI (A498 renal): 447 nM
GI50 (CAKI-1 renal): 290 nM
TGI (CAKI-1 renal): 1080 nM
GI50 (NCI-H226 lung): 199 nM
TGI (NCI-H226 lung): 508 nM
GI50 (CCRF-CEM leukemia): 116 nM
TGI (CCRF-CEM leukemia): 388 nM
GI50 (HT29 colon): 252 nM
TGI (HT29 colon): 676 nM
GI50 (UO-31 renal): 116 nM
TGI (UO-31 renal): 322 nM
GI50 (HOP-92 NSCLC): 86.7 nM
TGI (HOP-92 NSCLC): 489 nM
GI50 (IGROV1 ovarian): 77.8 nM
TGI (IGROV1 ovarian): 233 nM
GI50 (SNB-19 CNS): 466 nM
TGI (SNB-19 CNS): 1510 nM
GI50 (MALME-3M melanoma): 95.3 nM
TGI (MALME-3M melanoma): 307 nM
GI50 (HCT-116 colon): 171 nM
TGI (HCT-116 colon): 338 nM
GI50 (NCI/ADR-RES ovarian): 237 nM
TGI (NCI/ADR-RES ovarian): 643 nM
GI50 (COLO 205 colon): 168 nM
TGI (COLO 205 colon): 324 nM
GI50 (OVCAR-4 ovarian): 145 nM
TGI (OVCAR-4 ovarian): 311 nM
GI50 (MDA-MB-231 breast): 160 nM
TGI (MDA-MB-231 breast): 447 nM
GI50 (M14 melanoma): 183 nM
TGI (M14 melanoma): 425 nM
GI50 (BT-549 breast): 156 nM
TGI (BT-549 breast): 314 nM
GI50 (HCT-15 colon): 131 nM
TGI (HCT-15 colon): 287 nM
GI50 (UACC-257 melanoma): 203 nM
TGI (UACC-257 melanoma): 584 nM
GI50 (A549 NSCLC): 263 nM
TGI (A549 NSCLC): 771 nM
GI50 (HL-60(TB) leukemia): 38.4 nM
TGI (HL-60(TB) leukemia): 216 nM
GI50 (MDA-MB-435): 168 nM
TGI (MDA-MB-435): 339 nM
GI50 (SW-620 colon): 121 nM
TGI (SW-620 colon): 285 nM
GI50 (PC-3 prostate): 183 nM
TGI (PC-3 prostate): 627 nM
GI50 (786-0 renal): 155 nM
TGI (786-0 renal): 297 nM
GI50 (UACC-62 melanoma): 189 nM
TGI (UACC-62 melanoma): 497 nM
GI50 (SNB-75 CNS): 117 nM
TGI (SNB-75 CNS): 317 nM
GI50 (SK-MEL-5 melanoma): 181 nM
TGI (SK-MEL-5 melanoma): 380 nM
GI50 (MCF7 breast): 124 nM
TGI (MCF7 breast): 266 nM
GI50 (SN12C renal): 210 nM
TGI (SN12C renal): 730 nM
GI50 (NCI-H322M lung): 220 nM
TGI (NCI-H322M lung): 525 nM
GI50 (HOP-62 NSCLC): 205 nM
TGI (HOP-62 NSCLC): 425 nM
GI50 (SK-OV-3 ovarian): 388 nM
TGI (SK-OV-3 ovarian): 1250 nM
GI50 (NCI-H460 lung): 432 nM
TGI (NCI-H460 lung): 1420 nM
GI50 (NCI-H23 lung): 162 nM
TGI (NCI-H23 lung): 369 nM
GI50 (MOLT-4 leukemia): 175 nM
TGI (MOLT-4 leukemia): 513 nM
GI50 (KM12 colon): 347 nM
TGI (KM12 colon): 882 nM
GI50 (HCC-2998 colon): 300 nM
TGI (HCC-2998 colon): 793 nM
GI50 (OVCAR-3 ovarian): 137 nM
TGI (OVCAR-3 ovarian): 278 nM
GI50 (OVCAR-8 ovarian): 237 nM
TGI (OVCAR-8 ovarian): 705 nM
GI50 (T-47D breast): 82.2 nM
TGI (T-47D breast): 233 nM
GI50 (SF-268 CNS): 210 nM
TGI (SF-268 CNS): 714 nM
GI50 (RXF 393 renal): 126 nM
TGI (RXF 393 renal): 275 nM
GI50 (SF-539 CNS): 162 nM
TGI (SF-539 CNS): 366 nM
GI50 (SK-MEL-2 melanoma): 151 nM
TGI (SK-MEL-2 melanoma): 346 nM
GI50 (SF-295 CNS): 583 nM
TGI (SF-295 CNS): 1620 nM
GI50 (ACHN renal): 177 nM
TGI (ACHN renal): 338 nM
GI50 (DU-145 prostate): 312 nM
TGI (DU-145 prostate): 1080 nM
GI50 (RPMI-8226 leukemia): 164 nM
TGI (RPMI-8226 leukemia): 441 nM
GI50 (SR leukemia): 86.2 nM
TGI (SR leukemia): 340 nM

— PubChem BioAssay (NCI)
